{"source": "PubChem BioAssay AID938", "about": "(National Center for Advancing Translational Sciences (NCATS), 2007)", "note": "The list shows a part of the results, in another mix than the full data. Results filed as inconclusive are left out. Active and inactive are the calls of the source. Calls come from the whole dose curve; as a rule, active = well fitted activation curve with a large enough effect; inconclusive = small, poorly fitted or top-dose-only effect; inactive = no such curve, though single readings can be large or run the other way."}
{"test": "qHTS Assay for Agonists of the Thyroid Stimulating Hormone Receptor: Activators of Intracellular cAMP Concentrations in Parental HEK 293; note: % of control where 0% means no effect; nearly all actives have a fitted effect of over 55% in size", "settings": "parental HEK293 CNG cAMP sensor, membrane potential fluorescence; at 57.1 µM (top of the series) unless noted"}
{"smiles": "NNC(NN)NN.n1nc(-c2nn[nH]n2)n[nH]1", "activation": "inactive: 11.6% [at 11.4 µM]"}
{"smiles": "Cc1ccccc1NP(C)(=O)Nc1ccccc1C", "activation": "inactive: 12%"}
{"smiles": "CP(=O)(Nc1ccc2c(c1)OCCO2)Oc1ccccc1", "note": "(stereo not drawn)", "activation": "inactive: 7.8%"}
{"smiles": "CCOP(=O)(CC)OCC", "activation": "inactive: -0.244%"}
{"smiles": "CCOP(C)(=S)SCC(=O)NC(C)(CC)C(=O)O", "note": "(stereo not drawn)", "activation": "inactive: 28.5%"}
{"smiles": "Cc1c([N+](=O)[O-])cccc1[N+](=O)[O-]", "activation": "inactive: 7.48%"}
{"smiles": "CN(C)CCOC(=O)C(O)(c1ccccc1)C1CCCCC1", "note": "(stereo not drawn)", "activation": "inactive: 8.42%"}
{"smiles": "Cc1cccc([N+](=O)[O-])c1[N+](=O)[O-]", "activation": "inactive: -39.1%"}
{"smiles": "CP(=O)(Nc1ccccc1F)Oc1ccccc1", "note": "(stereo not drawn)", "activation": "inactive: 13.1%"}
{"smiles": "CP(=O)(Nc1ccccn1)Oc1ccccc1", "note": "(stereo not drawn)", "activation": "inactive: 7.9%"}
{"smiles": "Cc1nc2ccc3ccccc3c2o1.O=[N+]([O-])c1cc([N+](=O)[O-])c(O)c([N+](=O)[O-])c1", "activation": "inactive: 7.28%"}
{"smiles": "COc1ccccc1OP(C)(=O)Nc1ccc(C)c(C)c1", "note": "(stereo not drawn)", "activation": "inactive: 8.8%"}
{"smiles": "CP(=O)(Oc1ccccc1)N1CCOC1=O", "note": "(stereo not drawn)", "activation": "inactive: 2.09%"}
{"smiles": "COc1ccccc1OP(C)(=O)Nc1c(C)n(C)n(-c2ccccc2)c1=O", "note": "(stereo not drawn)", "activation": "inactive: 25%"}
{"smiles": "CCOP(C)(=S)SCC(=O)NC(C)C(=O)O", "note": "(stereo not drawn)", "activation": "inactive: 0.701%"}
{"smiles": "CP(=O)(NC(=O)Nc1ccccc1)Oc1ccccc1", "note": "(stereo not drawn)", "activation": "inactive: 9.95%"}
{"smiles": "CP(=S)(Nn1cnnc1)Oc1ccccc1", "note": "(stereo not drawn)", "activation": "inactive: 1.12%"}
{"smiles": "N1=C(c2nnc(-c3nn[nH]n3)nn2)NNN1", "activation": "inactive: 25.6% [at 11.4 µM]"}
{"smiles": "Cc1ccc(NP(C)(=O)Oc2ccccc2)c(C)c1", "note": "(stereo not drawn)", "activation": "inactive: 8.27%"}
{"smiles": "COc1ccccc1OP(C)(=O)Nc1ccc(C)cc1", "note": "(stereo not drawn)", "activation": "inactive: -1.57%"}
{"smiles": "Cc1ccc(C)c(NP(C)(=O)Oc2ccccc2)c1", "note": "(stereo not drawn)", "activation": "inactive: 13.1%"}
{"smiles": "O=[N+]([O-])c1cccc([N+](=O)[O-])c1", "activation": "inactive: -8.38%"}
{"smiles": "Cc1nc2ccc3ccccc3c2s1.O=[N+]([O-])c1cc([N+](=O)[O-])c(O)c([N+](=O)[O-])c1", "activation": "inactive: 17.2%"}
